Results taken from US6673332 (University of California, dated 2004).

How the values were obtained:
[1] = molecular target: T1, APP-GFP fusion protein (C-terminal 42 amino acids of human APP fused to GFP, from a His-tagged pRSETb-EGFP … (human)); test: GST pull-down on glutathione agarose beads, Western blot for GFP
T1 construct: Expressed in bacteria, purified on Ni-NTA-agarose; also called C-terminal tail of APP fused to GFP; APP C-terminus; not shown: His tag and leader of the pRSETb vector
Experimental: (§1) Briefly, purified GST, GST-KLC1 and GST-KLC2 bound to glutathione agarose beads were incubated with 10 μg of indicated purified fusion protein in 150 μl Buffer B (20 mM Tris-Cl, pH 7.5, 50 mM KCl, 100 mM NaCl, 2 mM CaCl_2, 2 mM MgCl_2, 5 mM DTT, 1% BSA, and protease inhibitors) for 1 hr at 4° C. For the antibody inhibition experiments, the antibody was pre-bound to the beads for 1 hr at 4° C. and then incubated for 1 hr with the indicated protein. The unbound protein (in 150 μl total volume) was saved, and the beads were washed three times with Buffer B. Bound proteins were eluted with 50 μl of elution buffer (50 mM glutathione, 50 mM Tris-Cl, pH 8.0). The bound (50 μl) and unbound (50 μl, i.e., one-third of total volume) proteins were then analyzed by SDS-PAGE followed by Western blotting.
To test for direct interactions between the cytoplasmic C-terminal domain of APP and KLC, in vitro binding assays using GST fusion proteins were conducted. The results are shown in FIG. 5, Panel A. GST fused to full-length KLC1 (GST-KLC1) or full-length KLC2 (GST-KLC2) was incubated with a protein consisting of the C-terminal tail of APP fused to GFP (APP-GFP). APP-GFP bound to both GST-KLC1 and GST-KLC2 but not to GST alone. […]

GFP alone = molecular target: T2, GFP alone (UniProt P42212 = GFP); test: GST pull-down in five buffer conditions (GST-KLC1 or GST on beads), Western blot for GFP
T2 construct: Control
Experimental: as §1
In addition, the binding of APP-GFP or GFP alone to either GST-KLC1 or GST using four other buffers than Buffer B, namely (1) Buffer B without Ca^2+, (2) Buffer B+500 mM NaCl+1% NP-40, (3) Buffer A from sucrose gradients (10 mM HEPES, pH 7.3, 0.5 mM EGTA, 0.5 mM EGTA, 0.5 mM MgCl_2, and (4) PBS (137 mM NaCl, 2.7 mM KCl, 4.3 mM Na_2HPO_4 7 H_2O, 1.4 mM KH_2PO_4) were tested.
To test for direct interactions between the cytoplasmic C-terminal domain of APP and KLC, in vitro binding assays using GST fusion proteins were conducted. […]

B1: GST alone (glutathione S-transferase) (other, UniProt P08515 1-218, looked up)
chain: MSPILGYWKIKGLVQPTRLLLEYLEEKYEEHLYERDEGDKWRNKKFELGLEFPNLPYYIDGDVKLTQSMAIIRYIADKHNMLGGCPKERAEISMLEGAVLDIRYGVSRIAYSKDFETLKVDFLSKLPEMLKMFEDRLCHKTYLNGDHVTHPDFMLYDALDVVLYMDPMCLDAFPKLVCFKKRIEAIPQIDKYLKSSKYIAWPLQGWQATFGGGDHPPK
notes: Control
B1: no binding [1]; no binding (GFP alone).
